Results taken from patent publication US10995087B2, “Crystal form of URAT1 inhibitor, and preparation method therefor” (MEDSHINE DISCOVERY INC., priority 2017, dated 2021).

Protein sequences, listed by entry. Tags and fused reporters are not part of them. Lines headed by an entry give the natural chain unless they say otherwise; changes in a name come on top.
UniProt Q96S37: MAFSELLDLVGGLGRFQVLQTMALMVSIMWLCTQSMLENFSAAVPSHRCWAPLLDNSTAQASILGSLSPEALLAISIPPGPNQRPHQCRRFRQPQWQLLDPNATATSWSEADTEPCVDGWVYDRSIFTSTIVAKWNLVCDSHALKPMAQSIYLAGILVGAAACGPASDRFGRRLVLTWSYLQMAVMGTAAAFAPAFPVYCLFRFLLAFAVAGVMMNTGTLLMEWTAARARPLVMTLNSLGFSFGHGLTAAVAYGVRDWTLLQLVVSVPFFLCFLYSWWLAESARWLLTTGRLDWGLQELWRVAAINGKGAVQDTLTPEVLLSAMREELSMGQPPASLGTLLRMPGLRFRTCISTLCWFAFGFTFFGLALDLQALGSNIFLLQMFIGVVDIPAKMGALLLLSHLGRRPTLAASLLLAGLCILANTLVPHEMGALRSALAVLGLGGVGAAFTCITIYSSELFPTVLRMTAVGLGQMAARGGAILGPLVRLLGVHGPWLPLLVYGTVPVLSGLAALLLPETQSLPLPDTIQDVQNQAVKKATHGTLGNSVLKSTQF

Molecular target: T1, uric acid transporter URAT1 (Homo sapiens, UniProt Q96S37)
T1 construct: expressed in transfected cells; host or cells: HEK293A, stably overexpressing URAT1; the empty vector control is HEK293A-pcDNA3.1
Assay: Uptake cell inhibition experiment: URAT1-mediated 14C-uric acid uptake in HEK293A-URAT1 cells
Type: cell-based
Details: 2 min administration, n=3, read-out: IC50, inhibition of uptake of 14C-UA mediated by URAT1
Protocol: 1. Preparation of each working solution
1) DMSO was used as the solvent of a 200-fold working solution, the storing solution was diluted to a 200-fold working solution at each administration concentration.
2) Hanks balanced salt solution (without Cl^−) was used as the solvent for the 2-fold working solution of transport protein URAT1, and then 200-fold working solution in 1) was diluted by 100 times to obtain a 2-fold working solution at each administration concentration. […]
First, the culture medium in the culture plate was removed, and it was washed once with Hanks buffer salt solution (without Cl^−). […] The cell lysate was taken into a scintillation vial, and 3 mL of Aquasol-2 scintillation liquid was added, and the radioactive intensity in the sample was measured by using Tri-Carb 2910TR liquid scintillation instrument. […]
Three repeats (i.e. n=3) were set for each administration concentration. Mean±standard error (SD) was calculated using statistical formulas in Microsoft® Excel 2010 software.
According to the inhibitory rate (IR) for each transporter at each administration concentration, IC50 value, the effect of the compound on the transport activity of the drug transporter was calculated through Prism5.0 in combination with the Forecast function in Microsoft® Excel 2010 software. […]

O=C(O)CSc1nnc(Br)n1-c1ccc(C2CC2)c2ccccc12 [lesinurad, reference compound] was tested, and the IC50 was 6.01 µM.
